Results reported in ChEMBL document CHEMBL4196166 (J Med Chem, 2018).

Assays:
[1] = test system: Rattus norvegicus; experiment: Antikaliuretic effect in Sprague-Dawley rat assessed as acetazolamide-induced Na+/K+ ratio at 1.5 mg/kg, iv measured after 6 hrs post dose; format: ADME, organism-based; details: in vivo
[2] = species on record: Homo sapiens; experiment: Selectivity ratio of IC50 for tPA (unknown origin) to IC50 for human kidney uPA
[3] = species on record: Homo sapiens; experiment: Selectivity ratio of IC50 for plasmin (unknown origin) to IC50 for human kidney uPA
[4] = species on record: Homo sapiens; experiment: Selectivity ratio of IC50 for thrombin (unknown origin) to IC50 for human kidney uPA
[5] = species on record: Homo sapiens; experiment: Selectivity ratio of IC50 for trypsin (unknown origin) to IC50 for human kidney uPA
[6] = species on record: Homo sapiens; experiment: Selectivity ratio of IC50 for human plasma kallikrein to IC50 for human kidney uPA
[7] = species on record: Homo sapiens; experiment: Selectivity ratio of IC50 for factor 11a (unknown origin) to IC50 for human kidney uPA
[8] = species on record: Homo sapiens; experiment: Selectivity ratio of IC50 for factor 10a (unknown origin) to IC50 for human kidney uPA
[9] = species on record: Homo sapiens; experiment: Selectivity ratio of IC50 for activated protein C (unknown origin) to IC50 for human kidney uPA

## N=C(N)NC(=O)c1nc(-c2cc3ccccc3o2)c(N2CCCCCC2)nc1N
[1]
  Ratio: 2.44 to 2.68
[2]
  Ratio IC50: 20 to 100
[3]
  Ratio IC50: 20 to 100
[4]
  Ratio IC50: 20 to 100
[5]
  Ratio IC50: 20 to 100
[6]
  Ratio IC50: 20 to 100
[7]
  Ratio IC50: 20 to 100
[8]
  Ratio IC50: 20 to 100
[9]
  Ratio IC50: 20 to 100
